Laboratory results taken from ChEMBL document CHEMBL1138041, “Parallel artificial membrane permeability assay: a new membrane for the fast prediction of passive human skin permeability” (J Med Chem, 2006).

Species: Homo sapiens

O=C(O)c1ccccc1O [SALICYLIC ACID]
log Kp: -5.45 cm/s
